The values that follow come from patent publication US6171294A.

A short description of series [1]: transdermal electrotransport flux / delivery efficiency of sufentanil.
The conditions of series [2]: cited from earlier work.
For series [3], the system named is silver ion migration into the patient's skin. The series is described as follows: drug loading needed to prevent silver ion migration / TED and to induce and maintain analgesia during electrotransport delivery. The following applies: in vivo.
A short description of series [4]: in vitro transdermal electrotransport fentanyl flux, two-compartment diffusion cell, constant DC current.
Where [5] appears, read: electrotransport delivery, citrate buffer pH 5.

Structures are written as SMILES. Read-outs that look alike come from different tables or passages of the source. Some compounds may have been tested in ways that are not shown here.

For the molecule `CCC(=O)N(c1ccccc1)C1(COC)CCN(CCc2cccs2)CC1`, in series [1] (rate of drug delivered per unit of applied electrotransport current, vs fentanyl), the “transdermal electrotransport delivery efficiency relative to fentanyl” value was “one-third”. In addition, the “equivalent minimum concentration for concentration-independent flux” value in series [1] (sufentanil citrate, equivalent to 1.7 mM) is “about 1 mg/mL”. Besides, the “minimum concentration below which transdermal electrotransport flux becomes dependent on concentration” value in series [1] (sufentanil salt in donor reservoir solution) is recorded as “about 1.7 mM”. The “lag time (time required to achieve peak plasma levels)” value in series [2] (setting [5]) is on record as 1.5 h; in series [2] (passive transdermal patches), 14 h. In addition, in series [2] (simple (passive) diffusion, citrate buffer pH 5), the “plasma concentration by simple diffusion” value is “did not produce any detectable plasma concentration”. Further, the “sufentanil HCl loading needed to prevent silver ion migration relative to analgesically effective loading” value in series [3] was “at least 4 times”.
`CCC(=O)N(c1ccccc1)C1CCN(CCc2ccccc2)CC1`: the “time to steady state transdermal flux” value in series [4] (200 μA (100 μA/cm^2), average of 6 runs) is 8 h. Moreover, in series [4] (fentanyl HCl concentrations above about 6 mg/mL), the “normalized transdermal flux (percentage of steady state flux)” value was 100%. Moreover, the “lag time (time required to achieve peak plasma levels)” value in series [2] (setting [5]) is recorded as 1.5 h; in series [2] (passive transdermal patches), 14 h.
